{"source": "patent US20190339279A1", "about": "“DETECTING NITROAROMATIC COMPOUNDS WITH PYRENE-LABELED STARCH NANOPARTICLES” (published 2019)", "key": {"[1]": {"assay": "Quenching studies of Py-SNPs in DMSO (time-resolved fluorescence, Stern-Volmer)", "details": "from slope of τ0/τ vs quencher concentration", "excerpt": "Typically, Stern-Volmer plots are used to determine the bimolecular quenching rate constant kq. This parameter can be obtained from a Stern Volmer plot, namely a plot of the ratios F0/F or τ0/τ as a function of quencher concentration. In the absence of static quenching, both the F0/F and τ0/τ ratio should increase linearly with quencher concentration. From our experimental results, we find good agreement between the F0/F and τ0/τ ratios, and the slight discrepancy observed is most likely due to residual static quenching. It should be noted that the slopes from the τ0/τ ratios, which are unaffected by static quenching or re-absorption, were used to determine all kq values. Time-Resolved Fluorescence: All time-resolved fluorescence decays were acquired on an IBH fluorimeter equipped with an IBH 340 nm NanoLED. All solutions were excited at 346 nm and the fluorescence decays for the Py-SNPs were acquired at 375 and 510 nm for the monomer and excimer, respectively. To ensure a good signal-to-noise ratio, the fluorescence decays were acquired with 20,000 counts at the decay maximum. All decays were fitted with a sum of exponentials. […] The stock solution (3.7 g) was diluted with 1.3 g of DMSO to yield the solution “Sol A” with a pyrene concentration of 2.5·10^−6 M, corresponding to an absorbance of 0.1. […]"}, "[2]": {"details": "in water; cited from earlier work"}}, "note": "Only a part of the results on these compounds is given; other tests are left out."}
{"smiles": "Cc1c([N+](=O)[O-])cccc1[N+](=O)[O-]", "values": [{"measurement": "bimolecular quenching rate constant kq", "setting": "[1]", "value": "2.2 (±0.2) M^−1 ns^−1"}, {"measurement": "water solubility", "setting": "[2]", "value": 279, "unit": "µg/mL"}]}
{"smiles": "Cc1c([N+](=O)[O-])cc([N+](=O)[O-])cc1[N+](=O)[O-]", "values": [{"measurement": "water solubility", "setting": "[2]", "value": 127, "unit": "µg/mL"}]}
